Laboratory results: patent US20240317709A1, “Lysophosphatidic Acid Receptor Antagonists for Breast Cancer Treatment” (Lakehead University, priority 2023, published 2024)

Amino acid sequences for entries named in this document (tags omitted). A change or cut given only in a name is not applied to a line headed by its entry.
UniProt Q92633: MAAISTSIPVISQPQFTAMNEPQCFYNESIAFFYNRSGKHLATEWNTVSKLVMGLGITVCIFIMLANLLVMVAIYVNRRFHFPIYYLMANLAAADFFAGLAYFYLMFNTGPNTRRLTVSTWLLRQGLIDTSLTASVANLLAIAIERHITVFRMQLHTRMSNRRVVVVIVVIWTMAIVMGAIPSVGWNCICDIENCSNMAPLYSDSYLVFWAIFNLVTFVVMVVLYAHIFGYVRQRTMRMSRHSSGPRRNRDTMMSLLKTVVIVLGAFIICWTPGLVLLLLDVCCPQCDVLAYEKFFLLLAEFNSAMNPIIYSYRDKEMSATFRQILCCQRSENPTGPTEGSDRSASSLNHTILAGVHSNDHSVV

Biological target: LPA1 (Homo sapiens, UniProt Q92633)
Experiment: in vitro cAMP assay using a CHO cell line overexpressing LPA1 receptor
Assay type: cell-based
Set-up: GFP; host or cells: CHO-K1, transiently transfected
Conditions: 1 μM LPA, 100 nM forskolin, test concentration not given

`Cc1nnn(-c2ccc(-c3ccc(C4(C(=O)O)CC4)cc3)cc2)c1NC(=O)OC(C)c1ccccc1F` (stereo not shown) [Compound 1g, 1-(4′-(5-(((1-(2-fluorophenyl)ethoxy)carbonyl)amino)-4-methyl-1H-1,2,3-triazol-1-yl)-[1,1′-biphenyl]-4-yl)cyclopropane-1-carboxylic acid] was tested, and the “% inhibition” value was 96.4%.
